Target: CARM1 (PRMT4) (Homo sapiens, UniProt Q86X55)
Test: CARM1 Biochemical Assay (3H-SAM Flashplate, peptide substrate)
Conditions: read-out: Biochemical IC50 CARM1; 30 min preincubation, room temperature
Text: S-adenosylmethionine (SAM), S-adenosylhomocysteine (SAH), bicine, Tween20, dimethylsulfoxide (DMSO), bovine skin gelatin (BSG), sodium butyrate and Tris(2-carboxyethyl)phosphine hydrochloride solution (TCEP) were purchased from Sigma-Aldrich at the highest level of purity possible. ^3H-SAM was purchase from American Radiolabeled Chemicals with a specific activity of 80 Ci/mmol. 384-well streptavidin Flashplates were purchased from PerkinElmer.
Peptide representative of human histone H3 residues 16-30 was synthesized with an N-terminal linker-affinity tag motif and a C-terminal amide cap by 21st Century Biochemicals. The peptide was purified by high-performance liquid chromatography (HPLC) to greater than 95% purity and confirmed by liquid chromatography mass spectrometry (LC-MS). The sequence was Biot-Ahx-PRKQLATKAARKSAP-amide and contained a monomethylated arginine at position 26 (SEQ ID NO.:14).
Human CARM1 (PRMT4) (NM_199141.1) transcript clone was amplified from an HEK 293 cDNA library, incorporating a flanking 5′ sequence encoding a FLAG tag (MDYKDDDDK) (SEQ ID NO.:6) fused directly to Ala 2 of CARM1 and 3′ sequence encoding a hexa His sequence (EGHHHHHH) (SEQ ID NO.:15) fused directly to Ser 608. The gene sequence encoding isoform1 containing a deletion of amino acids 539-561 was amplified subsequently and subcloned into pFastBacMam (Viva Biotech). […]

Protein sequences, listed by entry. Tags and fused reporters are not part of them. Residues count along the entry.
UniProt Q86X55, 1-585 isoform 1: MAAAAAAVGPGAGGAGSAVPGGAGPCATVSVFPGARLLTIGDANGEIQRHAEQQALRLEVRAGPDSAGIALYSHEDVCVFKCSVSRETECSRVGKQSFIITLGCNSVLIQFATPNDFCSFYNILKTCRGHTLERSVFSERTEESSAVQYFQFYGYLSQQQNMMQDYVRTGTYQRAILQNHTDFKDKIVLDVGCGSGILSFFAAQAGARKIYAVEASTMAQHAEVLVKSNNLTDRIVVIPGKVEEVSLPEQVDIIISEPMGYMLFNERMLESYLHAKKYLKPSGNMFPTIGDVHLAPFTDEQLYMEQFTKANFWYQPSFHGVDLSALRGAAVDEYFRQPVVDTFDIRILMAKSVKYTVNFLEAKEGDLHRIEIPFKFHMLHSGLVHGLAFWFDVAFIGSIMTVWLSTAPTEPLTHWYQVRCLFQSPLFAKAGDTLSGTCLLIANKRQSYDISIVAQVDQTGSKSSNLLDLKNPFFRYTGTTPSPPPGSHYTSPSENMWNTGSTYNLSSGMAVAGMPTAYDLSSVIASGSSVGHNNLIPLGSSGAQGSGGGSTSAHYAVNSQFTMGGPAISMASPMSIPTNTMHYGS

Row | Compound | IC50 [nM]
1 | CNCCN(C)Cc1c[nH]nc1-c1csc2ccccc12 | 101 to 1000
2 | CNCCN(C)Cc1c[nH]nc1-c1cncnc1 | > 10000
